Laboratory results reported in PubChem BioAssay AID588621 (Sanford-Burnham Center for Chemical Genomics, 2011).
The entries are a selection whose mix differs from that of the whole data set. The source made the active and inactive calls.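 Rule for the calls: active = inhibition at 20 µM, scaled per plate between control wells, above about 37% (limit read from the data); inactive = the rest.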

Amino acid sequences for entries named in this document (tags omitted).
UniProt P54829, whole entry: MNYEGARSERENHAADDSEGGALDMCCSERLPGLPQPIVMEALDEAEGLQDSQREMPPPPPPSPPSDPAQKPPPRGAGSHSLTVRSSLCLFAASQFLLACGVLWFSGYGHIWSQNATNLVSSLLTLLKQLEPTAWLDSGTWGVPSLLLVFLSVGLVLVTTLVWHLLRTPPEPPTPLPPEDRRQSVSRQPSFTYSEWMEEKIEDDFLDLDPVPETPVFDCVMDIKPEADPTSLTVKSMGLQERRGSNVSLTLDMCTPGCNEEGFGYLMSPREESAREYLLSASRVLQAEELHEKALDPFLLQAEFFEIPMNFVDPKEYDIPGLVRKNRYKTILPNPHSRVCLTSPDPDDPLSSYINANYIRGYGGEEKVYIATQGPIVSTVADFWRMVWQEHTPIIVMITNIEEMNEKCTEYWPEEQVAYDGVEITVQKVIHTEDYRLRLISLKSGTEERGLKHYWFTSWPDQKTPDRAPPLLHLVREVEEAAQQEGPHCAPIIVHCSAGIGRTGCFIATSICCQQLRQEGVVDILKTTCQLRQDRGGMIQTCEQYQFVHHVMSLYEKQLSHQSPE

These molecules were tested against Tyrosine-protein phosphatase non-receptor type 5 (Homo sapiens) (UniProt P54829) (assay: STEP phosphatase inhibitors, primary screen, biochemical, fluorescence intensity, uHTS (AID 588621;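 note: 0% = DMSO with enzyme and substrate and 100% = substrate only without enzyme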)). Settings: recombinant STEP, OMFP fluorogenic substrate, at 20 µM, active compounds read high.
Procedure, shortened: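 System: STEP (striatal-enriched tyrosine phosphatase) enzyme, cell-free; medium: Bis-Tris pH 6.0 buffer with DTT, detergent; dosing: 20 µM, 1% DMSO; times: reaction 20 min, ambient temperature; detection: fluorescence, 480/540 nm; read-out basis: normalized % inhibition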

| SMILES | inhibition |
| --- | --- |
| CCC(=O)N(c1ccccc1)C1(COC)CCN(CCc2cccs2)CC1 | inactive: 1.6% |
| CCC(=O)N(c1ccccc1)C1(COC)CCN(CCn2nnn(CC)c2=O)CC1 | inactive: -1.5% |
